# Source: US20050020565A1, “CCK-1 receptor modulators” (priority 2003, published 2005)
# Amino acid sequences for entries named in this document (tags omitted).
# UniProt P32238, whole entry: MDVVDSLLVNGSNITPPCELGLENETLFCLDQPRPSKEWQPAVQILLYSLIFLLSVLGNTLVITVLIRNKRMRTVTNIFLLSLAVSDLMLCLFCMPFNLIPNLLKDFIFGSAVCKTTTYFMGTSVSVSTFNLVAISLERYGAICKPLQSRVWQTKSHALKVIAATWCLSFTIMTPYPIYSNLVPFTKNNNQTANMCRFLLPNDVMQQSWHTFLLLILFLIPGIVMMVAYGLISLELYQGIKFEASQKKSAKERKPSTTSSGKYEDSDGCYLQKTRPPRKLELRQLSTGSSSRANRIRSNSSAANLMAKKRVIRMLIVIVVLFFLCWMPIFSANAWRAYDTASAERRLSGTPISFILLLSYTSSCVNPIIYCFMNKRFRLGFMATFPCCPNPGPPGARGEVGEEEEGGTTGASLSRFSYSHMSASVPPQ
# Biological target: CCK-1 receptor (Homo sapiens, UniProt P32238)
# Test: CCK-1 receptor radioligand binding assay ([125I]-BH-CCK-8S displacement, membranes of stably transfected CHO-K1 cells)
# Details: membranes of CHO-K1 cells stably transfected with CCK-1 receptor, 0.3 μM PD-134,308 present
# Experimental: CHO-K1 cells that had undergone-stable transfection with the CCK-1 receptor were grown in DMEM supplemented with L-glutamine (2 mM), penicillin (50 units/mL) and streptomycin (50 μg/mL). Cells were cultured under continuous G418 selection (2 mM) and were harvested using a rubber cell scraper. CHO-K1 cells were sub-cultured a maximum of ten times before being reseeded from the original stocks.
# Membranes were prepared from the stably transfected CHO-K1 cells. Frozen cell pellets (−40° C.) were thawed in 14 mL of buffer A (10 mM HEPES, 130 mM NaCl, 4.7 mM KCl, 5 mM MgCl, 1 mM EGTA and 15.4 mg/100 mL bacitracin at pH 7.2), adapted from Harper et al. (Br. J. Pharmacol. (1996) 118, pp 1717-1726). The thawed pellets were homogenized using a Polytron PT-10 (7×1 s). […]
# All assays were conducted in 96-well plates (GF/B millipore filter plates) using buffer A, with 0.3 μM PD-134,308, for the dilutions. […] Total binding of [1251]-BH—CCK-8S was determined in the presence of 15 μL of buffer A. Non-specific binding of [1 251]-BH—CCK-8S was determined in the presence of 15 μL of 100 μM 2-naphthalenesulphonyl L-aspartyl-(2-phenethyl)amide (2-NAP: see R. A. Hull et al., Br. J. Pharmacol. (1993) 108, pp 734-740), a CCK-1 receptor selective antagonist that is structurally unrelated to the radioligand [1251]-BH—CCK-8S. […] Bound radioactivity was determined using a gamma counter (count time=1 min). […]
structure (smiles),measurement,value
COc1ccc(-n2nc(CC(C(=O)O)c3cccc(OC)c3)cc2-c2ccc(C)cc2)cc1 (stereo not shown),pKi,7.8
